Protein sequences, listed by entry. Tags and fused reporters are not part of them.
UniProt O43614, whole entry: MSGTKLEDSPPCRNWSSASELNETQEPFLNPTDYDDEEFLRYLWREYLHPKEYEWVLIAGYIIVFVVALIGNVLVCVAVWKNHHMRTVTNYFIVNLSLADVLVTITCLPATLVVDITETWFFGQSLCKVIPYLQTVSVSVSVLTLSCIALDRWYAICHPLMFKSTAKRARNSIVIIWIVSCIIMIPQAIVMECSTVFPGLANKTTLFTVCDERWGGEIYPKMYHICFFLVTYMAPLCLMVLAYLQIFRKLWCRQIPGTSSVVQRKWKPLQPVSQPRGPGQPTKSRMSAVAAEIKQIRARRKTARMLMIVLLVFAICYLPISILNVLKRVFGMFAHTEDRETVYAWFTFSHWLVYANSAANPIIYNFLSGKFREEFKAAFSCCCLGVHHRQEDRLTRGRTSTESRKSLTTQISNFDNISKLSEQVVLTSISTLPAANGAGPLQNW

In patent publication US7932269B2, “Sulfonamides as orexin antagonists” (Hoffmann-La Roche Inc., priority 2008, dated 2011):

Target: human orexin-2 (hOX2) receptors (Homo sapiens, UniProt O43614)
Assay: Intracellular Ca2+ mobilization assay (FLIPR), orexin-A as agonist
Conditions: read-out: Kb (μM) OX2R (human); CHO(dHFr-) cells stably expressing hOX2; antagonist applied 25 min before EC80 of orexin-A; Kb=IC50/(1+[A]/EC50)
Protocol: Intracellular Ca^2+ Mobilization Assay
The Chinese Hamster Ovary (dHFr-) mutant cell line stably expressing human orexin-1 (hOX1) or human orexin-2 (hOX2) receptors were maintained in Dulbecco's Modified Eagle Medium (1X) with GlutaMax™ 1, 4500 mg/L D-Glucose and Sodium Pyruvate (Catalog No. 31966-021, Invitrogen, Carlsbad, Calif.), 5% dialyzed fetal calf serum (Catalog No. 26400-044), 100 μg/ml penicillin and 100 μg/ml streptomycin. The cells were seeded at 5×10^4 cells/well in the poly-D-lysine treated, 96-well, black/clear-bottomed plates (Catalog No. BD356640, BD Biosciences, Palo Alto, Calif.). […] The cells were washed five times with FLIPR buffer to remove excess dye and intracellular calcium mobilization, [Ca^2+] were measured using a Fluorometric Imaging Plate Reader (FLIPR-96, Molecular Devices, Menlo Park, Calif.) as described previously (Malherbe et al., Mol. Pharmacol., 64, 823-832, 2003). […] The EC50 and EC80 values of orexin-A were measured daily from standard agonist concentration-response curves in CHO(dHFr-)-OX1R and —OX2R cell lines. […] Inhibition curves were determined by addition of 11 concentrations (0.0001-10 μM) of inhibitory compounds and using EC80 value of orexin-A as agonist (a concentration which gave 80% of max agonist response, determined daily). […]

| Structure (SMILES) | Kb |
| --- | --- |
| O=C(CN(c1ccc(Cl)cc1)S(=O)(=O)c1cccc(F)c1)N1CCCC1c1ccccc1 (centres unmarked) | 0.003 µM |
| O=C(CN(c1ccc(Cl)cc1)S(=O)(=O)c1ccc(F)cc1)N1CCCC1c1ccccc1 (centres unmarked) | 0.0014 µM |
